Data on two substances can be found in patent US9072703B2, “Glucose-dependent insulinotropic polypeptide analogues” (Ipsen Pharma S.A.S., priority 2008, dated 2015).

For data set [1] the following is noted: unmodified GIP; Said and Mutt, 1970; cited from earlier work.
Data set [2] has as its target T1, human recombinant GIP receptor (Homo sapiens, UniProt P48546).
T1 construct: expressed in transfected cells; host or cells: CHO-K1 clonal cells (membrane preparation)
T1 sequence (P48546 22-466): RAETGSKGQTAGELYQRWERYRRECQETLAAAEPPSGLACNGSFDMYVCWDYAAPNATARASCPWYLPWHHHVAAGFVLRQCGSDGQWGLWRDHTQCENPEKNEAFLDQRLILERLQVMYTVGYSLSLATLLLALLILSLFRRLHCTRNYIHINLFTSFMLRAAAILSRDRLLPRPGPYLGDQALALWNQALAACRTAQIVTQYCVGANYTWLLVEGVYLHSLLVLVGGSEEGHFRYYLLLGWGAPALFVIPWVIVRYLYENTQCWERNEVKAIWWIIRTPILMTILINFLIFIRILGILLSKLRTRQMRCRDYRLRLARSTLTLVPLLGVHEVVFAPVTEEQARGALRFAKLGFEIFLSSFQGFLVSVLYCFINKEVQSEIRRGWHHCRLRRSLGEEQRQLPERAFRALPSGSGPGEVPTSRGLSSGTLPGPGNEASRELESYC
Kind of data set: In vitro hGIP receptor binding assay. The conditions noted are these: membranes of CHO-K1 cells expressing human recombinant GIP receptor; 0.05 nM [125I]GIP. The protocol:
A. In Vitro hGIP Receptor Binding Assay Membranes for in vitro receptor binding assays were prepared by homogenizing the CHO-K1 clonal cells expressing the human recombinant GIP receptor, with a Brinkman Polytron (setting 6, 15 sec), in ice-cold 50 mM Tris-HCl and then subjected to two centrifugations at 39,000 g for 10 minutes, with a resuspension in fresh buffer in between. […] The final assay volume was 0.5 ml. The incubations were terminated by rapid filtration through GF/C filters (pre-soaked in 0.5% polyethylenimine) using a Brandel filtration manifold. Each tube and filter were then washed three times with 5-ml aliquots of ice-cold buffer.

With “Glucose-dependent insulinotropic polypeptide [GIP, reference compound]”, the in vivo half-life result in data set [1] is recorded as “about 2 minutes”. As to “[A5c^11,41, Cys^33(succinimide-N-20K PEG)]hGIP(1-42)-NH2 [Example 44]”, the Ki (in general, a dissociation constant, usually derived from enzyme kinetics or from competition with a known ligand) in data set [2] is 0.76 nM.
